Experimental data: US20180318311A1, “TRICYCLIC 2-QUINOLINONES AS ANTIBACTERIALS” (priority 2017, published 2018)
≈ marks a conversion by molar mass, not a printed value.

Legend:
Assay type in all cases: cell-based
[1] = test system: S. aureus NB01080 fluoroquinolone-resistant clinical isolate; assay: MIC by broth microdilution, S. aureus NB01080; details: Staphylococcus aureus, 20 h, read-out: Antibacterial activity (MIC) NB01080
[2] = test system: E. faecalis ATCC 29212 (NB04001); assay: MIC by broth microdilution, E. faecalis NB04001; details: Enterococcus faecalis, ATCC29212, 20 h, read-out: Antibacterial activity (MIC) NB04001
[3] = test system: S. pneumoniae ATCC 25922 (NB07001); assay: MIC by broth microdilution, S. pneumoniae NB07001; details: Streptococcus pneumoniae, ATCC25922, 20 h, read-out: Antibacterial activity (MIC) NB07001
[4] = test system: E. coli ATCC 25922 (NB27001); assay: MIC by broth microdilution, E. coli NB27001; details: Escherichia coli, ATCC25922, 20 h, read-out: Antibacterial activity (MIC) NB27001
[5] = test system: P. aeruginosa NB52019, wild-type PAO1 strain; assay: MIC by broth microdilution, P. aeruginosa NB52019; details: Pseudomonas aeruginosa, PAO1, 20 h, read-out: Antibacterial activity (MIC) NB52019

Structure (SMILES) | MIC [1] [µg/mL] | MIC [2] [µg/mL] | MIC [3] [µg/mL] | MIC [4] [µg/mL] | MIC [5] [µg/mL]
C[C@H]1COc2c(N3CC[C@@H](C4(N)CC4)C3)ccc3cc(C(=O)O)c(=O)n1c23 [Example 12.3, (S)-10-((R)-3-(1-aminocyclopropyl)pyrrolidin-1-yl)-3-methyl-5-oxo-2,3-dihydro-5H-[1,4]oxazino[2,3,4-ij]quinoline-6-carboxylic acid] | < 1 | < 1 | < 1 | < 1 | > 32
C[C@H]1COc2c(N3CC[C@@H](C4(N)CC4)C3)cc(Cl)c3cc(C(=O)O)c(=O)n1c23 [Example 19.3, (S)-10-((R)-3-(1-aminocyclopropyl)pyrrolidin-1-yl)-8-chloro-3-methyl-5-oxo-2,3-dihydro-5H-[1,4]oxazino[2,3,4-ij]quinoline-6-carboxylic acid] |  | < 1 | < 1 | 1 to 32 (≈ 2.48 to 79.2 µM) | > 32
